Yeast mating assay B: variants of the scFv Ab-14

The measurements come from Li et al. 2023 (doi:10.1038/s41467-023-39022-2) through the FLAb antibody collection.

The target is the same throughout: PDVDLGDISGINAS, from the HR2 region of SARS-CoV-2 spike.

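The starting antibody came from a phage panning campaign against this peptide. These sequences belong to a second round, designed from the earlier measurements on random variants of the parent. Group labels follow the data file (Ctrl: baseline library sampled from a position-specific scoring matrix, with some repeated check sequences; Rand: our label for a block that the file lists under HC and that is probably the random mutants of the ten best first-round binders; GP: Gaussian process model; GPLM: also part of the Gaussian process libraries; HC: hill climbing; Gen: genetic algorithm; Gibbs: Gibbs sampling; a sequence that several methods proposed may carry one label only). The scFvs were displayed on barcoded MATa yeast, the peptide on MATalpha yeast. After mating in shaken culture at 30 °C for 16 h, diploids were selected and their barcode pairs sequenced. Each replicate has its own calibration line, from reference interactions of the BCL2 family. The assay was run in six technical replicates.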

Parent scFv Ab-14: VH joined to VL by three GGGGS repeats. Changes lie in the heavy chain CDRs alone.
VH: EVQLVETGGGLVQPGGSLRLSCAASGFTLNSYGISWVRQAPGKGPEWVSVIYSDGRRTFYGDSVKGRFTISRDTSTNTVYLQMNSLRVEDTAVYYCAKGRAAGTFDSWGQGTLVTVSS
VL: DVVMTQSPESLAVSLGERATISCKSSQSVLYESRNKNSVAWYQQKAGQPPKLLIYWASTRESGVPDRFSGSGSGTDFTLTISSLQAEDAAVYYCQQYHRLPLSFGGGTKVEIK

The parent's heavy chain CDRs are GFTLNSYGIS, VIYSDGRRTFYGDSVK, GRAAGTFDS; each variant's own CDRs replace them letter for letter. This list holds designs with at most six substitutions. Each Kd is an estimate from the mating assay, the geometric mean of the replicates in which the pair was seen; lower is stronger. "nd" marks a missing value. The strain was present, yet no cells mated with the target were sequenced in any replicate, which points to weak or no binding. Values of this round are not directly comparable with the first-round values of the same sequences.

- GFTLNDYGPS / VIYSDGRRTFYGDSVK / GRAALTFIS [Rand] -> nd (0 of 6 replicates)
- GFTLNSYGIS / VIYSDGQRTFYGDSVK / GRAAGTFKS [Ctrl] -> 12 nM (5 of 6 replicates)
- GFTLNDYGIS / VIYSDGHRTFYGDSVK / GRAALTFIS [Rand] -> nd (0 of 6 replicates)
- GVGLNEYGIS / VIYSDGRRTFYGDSVK / GRAAGAFDS [Ctrl] -> 91 nM (1 of 6 replicates)
- GMTLNEYGIS / VIYSDGRRTFYTDSVK / GRTAGTFDS [GP_HC] -> 4.0 nM (6 of 6 replicates)
- GFDLNSYGIS / VIYSDGRRTFYGDSVK / GRCAGTFDS [GPLM_Gen] -> 200 nM (3 of 6 replicates)
- GDTLNSYGIS / VIYEDGRRAAYGDSVK / GRAQGTFDS [Ctrl] -> nd (0 of 6 replicates)
- GFHLNSYGIS / VIYSDGRRTFYQDSVK / GQEAGTFDS [GP_Gibbs] -> 220 pM (5 of 6 replicates)
- GFTLASYGIS / VIYSDGRRTFYGDSVK / GRAAGTFDS [Ctrl] -> 1.4 µM (1 of 6 replicates)
- GFSLNSYGIS / VIYSDGRRTFYGDSVK / GMTAGTFDS [GPLM_Gen] -> 14 nM (6 of 6 replicates)
- GFSLNQYGIS / VIYSDGRRTFYSDSVK / GRAAGKFDS [GPLM_HC] -> nd (0 of 6 replicates)
- GFTLNSYGIS / VIYSDGRRTFYGDNVK / GQLAGTFDS [GP_HC] -> 43 nM (4 of 6 replicates)
- GFTLNSYGIS / VIYADGRRTFYGDSVK / GMAAGTFKM [GP_HC] -> nd (0 of 6 replicates)
- GFDLNEYGIS / VIYSDGRRTFYGDAVK / GRAAGTFDV [GP_HC] -> 3.9 nM (6 of 6 replicates)
- GFTLNSYGIS / VIYSDGRRTFYHDSVK / GRAAGTFMS [Ctrl] -> 77 nM (1 of 6 replicates)
- GFTLNSYGIS / VIYSDGRRTFYGDSVK / GEGAGTFDS [Ctrl] -> 95 nM (5 of 6 replicates)
- GFSLNSYGIS / VIYSDGRRTFYTDSVK / GMGAGTFDS [GP_HC] -> 170 nM (1 of 6 replicates)
- GFTLNSYGIS / VIYSDGLRTFYIDSVK / GNAAGTFDS [GP_Gen] -> 19 nM (5 of 6 replicates)
- GFTLNSYGIS / VIYSDGRRTFYADSVK / GQTAGTFDL [GPLM_Gen] -> 3.5 nM (6 of 6 replicates)
- GFTVNSYGIS / VMYSDGRRTFYTDSVK / GRAAGTFDW [Ctrl] -> 370 nM (1 of 6 replicates)
- KFSLNSYGIS / VIYSDGRRTFYGDSVV / GRASGTFDQ [Ctrl] -> nd (0 of 6 replicates)
- GFSLNSYGIS / VIYSDGRRTFYGDNVK / GQAAGTFDL [GP_Gibbs] -> 7.3 nM (6 of 6 replicates)
- GFSLNSYGIS / VIYSDGRRTFYIDSVK / GKNAGTFDS [GP_Gen] -> 4.0 nM (5 of 6 replicates)
- GFDLNSYGIS / VIYSDGRRTFYGDSVK / GRAAATFDS [GPLM_Gen] -> 910 nM (1 of 6 replicates)
- GFTLNSYGIS / VIYSDGRRTFYNDSVK / GQAAGTMDS [Ctrl] -> nd (0 of 6 replicates)
- GFTLNEYGIS / VIYSDGRRTFYTDSVK / GLAAGTFDL [GP_HC] -> 1.3 nM (6 of 6 replicates)
- GFNLNSYGIS / VIYSDGRRTFYGDSVK / GQAAGTFDT [GPLM_Gibbs] -> 500 pM (3 of 6 replicates)
- NFDLNSYGIS / VIYSDGRRTFYGDSVK / GQTAGTFDS [GP_Gen] -> 11 nM (6 of 6 replicates)
- GFTLNTYGIS / VIYSDGLRTFYGDSVK / GRAAGTFDS [Ctrl] -> 26 nM (5 of 6 replicates)
- GFDLNSYGIS / VIYSDGRRTFYGDSVK / GAEAGTFES [GP_HC] -> 5.6 nM (6 of 6 replicates)
- GFTLDSYGIS / VIYSDGRRTMYGDSVK / GRAADTDDS [Ctrl] -> 120 nM (1 of 6 replicates)
- HFELNSYGIS / VIYSDGRRTFYADSVK / GQTAGTFDS [GP_Gen] -> 3.5 nM (6 of 6 replicates)
- GFSLNEYGIS / VIYSDGRRTFYGDSVK / GRQAGTFDN [GP_Gen] -> 1.6 nM (6 of 6 replicates)

From the list, the first 4 with no signal in any replicate:

CDR-H1,CDR-H2,CDR-H3,group,apparent Kd,detected
GFTLNDYGPS,VIYSDGRRTFYGDSVK,GRAALTFIS,Rand,nd,0 of 6
GFTLNDYGIS,VIYSDGHRTFYGDSVK,GRAALTFIS,Rand,nd,0 of 6
GDTLNSYGIS,VIYEDGRRAAYGDSVK,GRAQGTFDS,Ctrl,nd,0 of 6
GFSLNQYGIS,VIYSDGRRTFYSDSVK,GRAAGKFDS,GPLM_HC,nd,0 of 6

Background: pairings of all heavy chain designs with three empty control strains gave a value in 1% of cases (median 120 nM, 5th percentile 7.0 nM). Values in that range, when seen in few replicates, are hard to tell from nonspecific mating. The authors averaged sequences with at least three values out of six and counted those with two or fewer as poor binders.